Biological target: T1, recombinant FSH receptor stably transfected and expressed in Chinese Hamster Ovary cells (Homo sapiens, UniProt P23945)
T1 construct: expressed in transfected cells; host or cells: Chinese Hamster Ovary (CHO) cells, stably transfected, with CRE-luciferase reporter
T1 sequence (P23945 18-695): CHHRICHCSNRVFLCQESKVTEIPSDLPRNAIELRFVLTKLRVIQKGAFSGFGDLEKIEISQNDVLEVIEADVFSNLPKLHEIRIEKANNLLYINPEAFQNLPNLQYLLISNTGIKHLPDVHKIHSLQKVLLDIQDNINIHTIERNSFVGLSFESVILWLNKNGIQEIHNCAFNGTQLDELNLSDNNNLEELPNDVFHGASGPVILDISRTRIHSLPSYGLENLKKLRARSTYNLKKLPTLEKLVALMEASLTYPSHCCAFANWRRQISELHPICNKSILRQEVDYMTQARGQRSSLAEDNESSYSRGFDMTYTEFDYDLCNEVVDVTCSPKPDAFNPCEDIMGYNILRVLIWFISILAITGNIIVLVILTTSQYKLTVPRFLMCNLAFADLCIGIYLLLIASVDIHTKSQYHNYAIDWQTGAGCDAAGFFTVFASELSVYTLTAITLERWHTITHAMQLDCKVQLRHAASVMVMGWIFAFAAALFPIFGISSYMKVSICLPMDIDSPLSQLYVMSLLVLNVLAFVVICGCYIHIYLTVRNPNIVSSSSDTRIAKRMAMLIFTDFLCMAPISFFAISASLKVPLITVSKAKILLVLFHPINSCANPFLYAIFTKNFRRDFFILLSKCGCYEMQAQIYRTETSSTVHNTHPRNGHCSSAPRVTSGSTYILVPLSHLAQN
Assay: FSH assay: CHO luciferase FSHR (CRE-luciferase reporter, LDR curves)
Assay type: cell-based
Details: FIG. 6, from the graph; duplicate samples; luciferase luminescence in CHO FSHR cells
Method: All compounds were stored in 96-well deepwell plates in DMSO at a nominal concentration of 10 mM (assuming perfect synthesis and yields). Compounds were screened for agonist activity at the FSH receptor using the recombinant FSH receptor stably transfected and expressed in Chinese Hamster Ovary cells (CHO cells) essentially as described in the work by Kelton, et al. (Molecular and Cellular Endocrinology, 1992, 89, 141-151). […] An agonist at the FSH receptor increases cAMP in the cell, which results in activation of CREB (cAMP response element binding protein). […] The amount of luciferase expressed was measured by quantitating the luminescence produced by the enzyme using a TopCount scintillation/luminescence counter running in single photon counting mode. […] Luminescence should be saturable at high concentrations of the compound.
The compounds of the invention, in deepwell plates (Master plates) were loaded on the robotic deck along with the appropriate number of assay plates and daughter plates. […] 100 μl of Luclite (prepared as described by the manufacturer) was added to each well and the plate was shaken gently for 40 s prior to placement in the Topcount plate reader. After allowing 3.5 min for the plate to dark-adapt within the machine, the amount of luminescence generated was quantitated using Single Photon Counting mode. […]

## FSH: pituitary-derived heterodimeric glycoprotein hormone, used as a positive control
  EC50: 1.47 pM

— patent US6653338B2, “FSH mimetics for the treatment of infertility” (Applied Research Systems ARS Holding N.A., priority 1998, dated 2003)
